Tests used:
[1] = molecular target: T1, Phosphatidylinositol 4,5-bisphosphate 3-kinase catalytic subunit delta isoform (Homo sapiens) (UniProt O00329); experiment: Inhibition of PI3Kdelta (unknown origin) at 3 uM by Ambit Kinomescan assay relative to control
T1 sequence (whole entry): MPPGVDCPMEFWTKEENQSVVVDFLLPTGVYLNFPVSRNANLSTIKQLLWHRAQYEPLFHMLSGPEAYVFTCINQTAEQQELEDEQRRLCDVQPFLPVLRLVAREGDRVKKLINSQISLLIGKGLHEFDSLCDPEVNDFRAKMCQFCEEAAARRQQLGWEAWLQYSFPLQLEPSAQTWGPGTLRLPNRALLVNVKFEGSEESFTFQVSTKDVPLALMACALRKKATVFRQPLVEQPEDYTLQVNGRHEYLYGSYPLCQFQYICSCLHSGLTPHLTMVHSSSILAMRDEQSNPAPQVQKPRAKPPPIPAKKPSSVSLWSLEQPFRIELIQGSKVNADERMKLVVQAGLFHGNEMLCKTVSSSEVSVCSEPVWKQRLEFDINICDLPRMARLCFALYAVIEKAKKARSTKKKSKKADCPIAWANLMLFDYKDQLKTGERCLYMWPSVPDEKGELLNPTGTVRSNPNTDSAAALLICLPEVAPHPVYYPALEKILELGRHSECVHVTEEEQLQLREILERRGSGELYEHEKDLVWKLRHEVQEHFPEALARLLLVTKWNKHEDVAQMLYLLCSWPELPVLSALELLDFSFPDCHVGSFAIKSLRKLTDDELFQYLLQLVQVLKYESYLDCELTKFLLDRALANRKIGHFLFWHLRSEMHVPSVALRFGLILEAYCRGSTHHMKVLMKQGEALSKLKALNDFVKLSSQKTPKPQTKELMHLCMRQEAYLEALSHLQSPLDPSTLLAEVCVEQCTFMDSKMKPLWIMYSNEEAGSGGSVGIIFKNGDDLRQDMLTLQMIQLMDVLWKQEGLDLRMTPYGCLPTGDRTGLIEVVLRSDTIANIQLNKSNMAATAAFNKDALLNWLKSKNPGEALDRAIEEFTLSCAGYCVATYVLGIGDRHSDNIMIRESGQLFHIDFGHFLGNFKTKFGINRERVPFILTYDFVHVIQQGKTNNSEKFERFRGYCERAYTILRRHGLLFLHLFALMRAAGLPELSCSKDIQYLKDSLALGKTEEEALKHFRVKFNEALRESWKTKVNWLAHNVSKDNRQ

Chains of the proteins cited; added tags and fusions are not shown. Lines headed by an entry give the natural chain unless they say otherwise; changes in a name come on top.
UniProt P07949, whole entry: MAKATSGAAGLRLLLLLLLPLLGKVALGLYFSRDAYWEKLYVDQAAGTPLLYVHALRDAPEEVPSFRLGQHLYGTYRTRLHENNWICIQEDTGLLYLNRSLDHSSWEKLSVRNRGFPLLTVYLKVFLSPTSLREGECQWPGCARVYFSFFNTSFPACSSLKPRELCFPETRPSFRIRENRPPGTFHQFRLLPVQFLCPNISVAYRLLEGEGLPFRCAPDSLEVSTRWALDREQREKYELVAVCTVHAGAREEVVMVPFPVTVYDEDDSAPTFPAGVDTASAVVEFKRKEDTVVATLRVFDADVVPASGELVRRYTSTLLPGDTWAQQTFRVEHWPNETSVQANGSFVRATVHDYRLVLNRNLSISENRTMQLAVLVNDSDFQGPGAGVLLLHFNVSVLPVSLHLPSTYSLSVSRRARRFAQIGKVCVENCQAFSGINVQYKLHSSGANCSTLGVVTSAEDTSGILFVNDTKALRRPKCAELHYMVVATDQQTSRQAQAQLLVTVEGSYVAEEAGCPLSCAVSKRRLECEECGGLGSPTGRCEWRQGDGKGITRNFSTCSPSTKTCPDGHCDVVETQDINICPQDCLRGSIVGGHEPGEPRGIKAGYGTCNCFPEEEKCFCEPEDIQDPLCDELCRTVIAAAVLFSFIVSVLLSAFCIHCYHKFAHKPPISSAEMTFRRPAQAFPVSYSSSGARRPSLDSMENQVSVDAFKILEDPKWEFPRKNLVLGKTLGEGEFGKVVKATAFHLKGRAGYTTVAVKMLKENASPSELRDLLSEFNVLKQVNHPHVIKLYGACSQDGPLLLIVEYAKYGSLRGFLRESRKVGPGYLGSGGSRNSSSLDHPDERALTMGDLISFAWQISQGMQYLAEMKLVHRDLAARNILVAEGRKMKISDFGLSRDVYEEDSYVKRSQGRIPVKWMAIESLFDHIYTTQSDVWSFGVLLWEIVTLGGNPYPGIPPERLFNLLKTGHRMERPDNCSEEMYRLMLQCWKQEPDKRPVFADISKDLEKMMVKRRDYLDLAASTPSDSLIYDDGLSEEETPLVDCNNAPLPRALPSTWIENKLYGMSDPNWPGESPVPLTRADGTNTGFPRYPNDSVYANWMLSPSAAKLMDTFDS
UniProt P48736: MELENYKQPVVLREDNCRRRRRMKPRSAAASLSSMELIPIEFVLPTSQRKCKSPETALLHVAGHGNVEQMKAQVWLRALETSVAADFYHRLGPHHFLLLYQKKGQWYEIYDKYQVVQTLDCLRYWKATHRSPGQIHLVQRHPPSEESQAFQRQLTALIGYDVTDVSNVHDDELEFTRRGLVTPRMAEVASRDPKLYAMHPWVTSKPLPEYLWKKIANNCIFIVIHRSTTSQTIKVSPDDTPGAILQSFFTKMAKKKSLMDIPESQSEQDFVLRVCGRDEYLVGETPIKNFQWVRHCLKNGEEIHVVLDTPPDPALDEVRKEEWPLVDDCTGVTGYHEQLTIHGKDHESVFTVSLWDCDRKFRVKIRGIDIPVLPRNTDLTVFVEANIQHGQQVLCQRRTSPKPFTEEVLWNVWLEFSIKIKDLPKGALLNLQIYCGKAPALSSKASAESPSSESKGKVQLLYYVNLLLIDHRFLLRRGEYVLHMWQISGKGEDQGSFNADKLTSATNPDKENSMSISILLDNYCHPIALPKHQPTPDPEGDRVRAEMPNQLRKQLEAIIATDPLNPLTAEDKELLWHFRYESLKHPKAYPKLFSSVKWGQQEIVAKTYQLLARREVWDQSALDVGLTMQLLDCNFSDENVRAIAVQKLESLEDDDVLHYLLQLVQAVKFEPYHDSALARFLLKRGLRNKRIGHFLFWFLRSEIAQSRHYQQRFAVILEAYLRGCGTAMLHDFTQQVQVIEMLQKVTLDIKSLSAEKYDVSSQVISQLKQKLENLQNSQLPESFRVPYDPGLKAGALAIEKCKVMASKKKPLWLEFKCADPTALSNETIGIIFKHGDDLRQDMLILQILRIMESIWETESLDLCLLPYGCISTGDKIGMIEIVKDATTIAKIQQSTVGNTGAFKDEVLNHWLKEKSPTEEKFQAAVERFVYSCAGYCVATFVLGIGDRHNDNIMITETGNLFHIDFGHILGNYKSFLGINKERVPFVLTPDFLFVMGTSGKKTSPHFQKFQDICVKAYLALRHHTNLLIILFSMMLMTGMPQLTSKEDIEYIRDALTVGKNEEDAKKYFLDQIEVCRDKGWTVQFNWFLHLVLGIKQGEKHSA

[2] = molecular target: Proto-oncogene tyrosine-protein kinase receptor Ret (Homo sapiens) (UniProt P07949); experiment: Inhibition of RET (unknown origin) at 3 uM by Ambit Kinomescan assay relative to control
[3] = molecular target: Phosphatidylinositol 4,5-bisphosphate 3-kinase catalytic subunit gamma isoform (Homo sapiens, UniProt P48736); experiment: Inhibition of PI3Kgamma (unknown origin) at 3 uM by Ambit Kinomescan assay relative to control

Measured: inhibition

COc1cccc2cc(-c3nc([C@H]4CC[C@H](C(=O)O)CC4)n4ncnc(N)c34)[nH]c12 [OSI-027]
> 90%: [1] | [2] | [3]

Source: ChEMBL document CHEMBL5653605, “Reduced VEGF production, angiogenesis, and vascular regrowth contribute to the antitumor properties of dual mTORC1/mTORC2 inhibitors” (Cancer Res, 2011)
